Consider one compound from publication PMC7036909, “Discovery of Selective SIRT2 Inhibitors as Therapeutic Agents in B-Cell Lymphoma and Other Malignancies” (Molecules, 2020).

The assay concerns the target T1, SIRT2 (Homo sapiens, UniProt Q8IXJ6).
T1 sequence (Q8IXJ6 1-389): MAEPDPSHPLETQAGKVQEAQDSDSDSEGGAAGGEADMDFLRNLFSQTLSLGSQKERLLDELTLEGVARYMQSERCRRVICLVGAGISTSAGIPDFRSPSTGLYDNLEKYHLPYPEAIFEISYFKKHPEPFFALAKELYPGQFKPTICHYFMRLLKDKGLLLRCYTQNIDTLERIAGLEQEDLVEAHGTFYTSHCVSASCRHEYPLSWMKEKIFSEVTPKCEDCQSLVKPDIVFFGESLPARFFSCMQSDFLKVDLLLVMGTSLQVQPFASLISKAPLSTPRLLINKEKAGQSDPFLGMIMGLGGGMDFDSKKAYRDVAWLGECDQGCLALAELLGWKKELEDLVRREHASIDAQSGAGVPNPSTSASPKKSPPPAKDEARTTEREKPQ
Nature of the assay: SIRT-Glo enzyme inhibition assay, SIRT2. Particulars: read-out: SIRT2 percentage inhibition at 50 µM compound.

The term inhibition denotes the percentage by which the read-out fell short of the control. For `O=c1[nH]c(=S)[nH]c(-c2ccccc2)c1Cc1c(O)ccc2ccccc12` [Compound 1, cambinol, reference compound], the inhibition at 50 µM was determined as 46%.
